The record followed here is PubChem BioAssay AID743238 (Broad Institute, 2013).

The list shows a part of the results, in another mix than the full data. Some of these compounds have results that are not shown, active ones among them. The source made the active and inactive calls.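 The calls were made as follows: active = mean normalized replicate activation at least 10% and every replicate at or above 10%; inconclusive = only one of the two criteria met; inactive = mean below 10% and not all replicates reach 10%.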

The nature of this experiment: activators of inactive X chromosome reactivation, primary screen, imaging, XiGFP fibroblasts, GFP high-content imaging, set 2 (AID 743238).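 Also: 0% = median of on-plate neutral control wells and 100% = ellipticine 6 µM median.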 The following applies: XiGFP mouse fibroblasts, % GFP-positive cells imaging, 3 d; at 7.58 µM; active compounds read high; cells co-treated with 5-aza-dC sensitizer; scaled so ellipticine positive control = 100%. Put shortly:
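System: 68-5-11 XiGFP fibroblast line | Buffer or medium: DMEM containing 5-aza-dC | Compound: Single point | Times: Compounds 3 days, fix/stain 15 min at room temperature | Benchmarks: Positive control ellipticine, 6 µM final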
Turning to `CN(C)C1(CNC(=O)c2ccc(Br)cc2)CCCCC1`, the activation was inactive: -0.042%. Consider `COc1cc(C(=O)NCC2(N(C)C)CCCCC2)c([N+](=O)[O-])cc1OC`, for which the activation is inactive: 0.0335%.

Turning to `COc1ccc(Cl)cc1C(=O)NCC1(N(C)C)CCCCC1`, the activation is inactive: -0.083%. As to `COc1cccc(C(=O)NCC2(N3CCCCC3)CCCCC2)c1`, the activation is inactive: -0.128%. On to `O=C(NCC1(N2CCCCC2)CCCCC1)c1cccc(Cl)c1`, for which the activation is inactive: 0.0185%. To `COc1ccc(Br)c(C(=O)NCC2(N3CCCCC3)CCCCC2)c1` belongs inactive: -0.013%; to `C=C(C)C#CC(O)(C(=O)OC1CCN(C)CC1)c1ccccc1` (stereo not drawn), inactive: -0.012%; to `O=C(OCCN1CCCC1)C(O)(c1ccccc1)c1ccccc1`, inactive: 0.214%. Consider `CC(C)Oc1ccc(C(=O)NCC2(N(C)C)CCCCC2)cc1`, for which the activation was inactive: -0.045%. For `O=C(NCC1(N2CCCCC2)CCCCC1)c1cc([N+](=O)[O-])ccc1Cl` the value was inactive: 0.12%. Consider `CN1[C@@H]2CC[C@H]1CC(OC(=O)C(O)(c1ccccc1)c1ccccc1)C2` (stereo partly drawn), for which the activation is inactive: 0.0245%. On to `COc1cc(SC)ccc1C(=O)NCC1(N(C)C)CCCCC1`, for which the activation was inactive: -0.025%.

As to `CCN(CC)CC(C)C(C)OC(=O)C(O)(c1ccccc1)c1ccccc1` (stereo not drawn), the activation is inactive: -0.328%. For `Cc1ccc(C(=O)NCC2(N3CCCCC3)CCCCC2)cc1` the value was inactive: -0.0425%; for `CN(C)c1ccc(C(=O)NCC2(N(C)C)CCCCC2)cc1`, inactive: -0.0105%; for `CN(C)C1CCCC1OC(=O)C(O)(c1ccccc1)c1ccccc1` (stereo not drawn), inactive: -0.618%.

In the case of `Cc1ccccc1C(=O)NCC1(N2CCCCC2)CCCCC1`, the activation is inactive: 0.133%. For `O=C(NCC1(N2CCCCC2)CCCCC1)c1cc(F)c(F)cc1Cl`, the activation is inactive: 0.016%. To `C=CCN1CCN(CCOC(=O)C(O)(c2ccccc2)c2ccccc2)CC1` belongs inactive: -0.0505%; to `O=C(NCC1(N2CCCCC2)CCCCC1)c1cccc(Br)c1`, inactive: 0.373%. As for `CCN1CCCC(OC(=O)C2(O)c3ccccc3C=Cc3ccccc32)C1` (stereo not drawn), the activation was inactive: 0.143%. To `Cc1cc(C(=O)NCC2(N3CCCCC3)CCCCC2)ccc1[N+](=O)[O-]` belongs inactive: 0.516%; to `COc1ccc(C(=O)NCC2(N(C)C)CCCCC2)cc1`, inactive: -0.0915%.
